# AlphaSeq binding of Ab-14 light chain variants to a spike HR2 peptide

The target is the same throughout: PDVDLGDISGINAS, from the HR2 region of SARS-CoV-2 spike.

The variants keep the heavy chain, the linker and the frameworks of Ab-14 (scFv order VH, three GGGGS repeats, VL).
VH: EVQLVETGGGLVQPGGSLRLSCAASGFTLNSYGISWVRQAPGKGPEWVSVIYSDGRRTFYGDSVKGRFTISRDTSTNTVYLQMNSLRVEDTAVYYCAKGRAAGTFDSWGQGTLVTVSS
VL: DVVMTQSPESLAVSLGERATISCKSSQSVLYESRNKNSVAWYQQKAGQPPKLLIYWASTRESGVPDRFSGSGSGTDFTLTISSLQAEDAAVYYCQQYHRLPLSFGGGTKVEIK

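The starting antibody came from a phage panning campaign against this peptide. This is the validation round: designs drawn from the data on random variants, tested in the same kind of assay. Several design methods are mixed in this list. Affinity was read by AlphaSeq, a pooled yeast mating assay with surface-displayed partners. Mating (16 h, 30 °C) was followed by selection of diploids and sequencing of their barcodes. A regression on co-assayed BCL2-family reference pairs converts the normalised counts of each replicate to an apparent Kd. The assay was run in six technical replicates.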

Each variant's VL is given in full.
The Kd shown is the geometric mean over detected replicates; a lower Kd is a better binder.
"nd" means that the variant was in the library but no mating with the target was seen in any replicate; the authors take this as a sign of poor binding, and no number exists.
Values of this round are not directly comparable with the first-round values of the same sequences.

VL,Kd,replicates with signal
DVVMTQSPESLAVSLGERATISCFFGYDIFQENMKAKSIAWYQQKAGQPPKLLIYEANMRVEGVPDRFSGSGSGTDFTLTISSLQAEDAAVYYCQQYAILPLTFGGGTKVEIK,21 nM,6 of 6
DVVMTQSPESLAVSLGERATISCKVDQSFLYESRNKNSVAWYQQKAGQPPKLLIYWASTRESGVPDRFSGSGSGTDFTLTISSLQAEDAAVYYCQQYSRLPLSFGGGTKVEIK,2.1 nM,6 of 6
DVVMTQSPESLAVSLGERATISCSLMQVGGYESNRKNSIAWYQQKAGQPPKLLIYDLRTRESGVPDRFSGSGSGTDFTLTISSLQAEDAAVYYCQQYHRLPLSFGGGTKVEIK,5.2 nM,6 of 6
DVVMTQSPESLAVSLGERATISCKSSRSVLYEENNKNSVAWYQQKAGQPPKLLIYWASTREQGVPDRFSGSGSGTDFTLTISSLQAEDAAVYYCQQYHRLPLSFGGGTKVEIK,9.4 nM,6 of 6
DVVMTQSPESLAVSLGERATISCKSGQGVLYESRNGNSVDWYQQKAGQPPKLLIYGASLRESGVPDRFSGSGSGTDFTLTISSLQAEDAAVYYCQQYHRLPLSFGGGTKVEIK,9.7 nM,6 of 6
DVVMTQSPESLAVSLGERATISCNISQMFLMETKNVNNVAWYQQKAGQPPKLLIYQTSTREQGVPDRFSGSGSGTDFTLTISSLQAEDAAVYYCQDYHRLPLSFGGGTKVEIK,1.1 nM,6 of 6
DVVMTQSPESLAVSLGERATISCKMSGQVLDESTNKNSVAWYQQKAGQPPKLLIYWASTRESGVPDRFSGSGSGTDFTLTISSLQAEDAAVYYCQQYHRLPLSFGGGTKVEIK,6.5 nM,6 of 6
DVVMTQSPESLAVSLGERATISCKSQTGVLYESRNKNSVAWYQQKAGQPPKLLIYGASTRESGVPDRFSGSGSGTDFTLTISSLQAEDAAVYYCQQYHRLPLSFGGGTKVEIK,470 pM,6 of 6
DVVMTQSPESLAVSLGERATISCKLRNDFMENKQNQSNIAWYQQKAGQPPKLLIYGHHESIKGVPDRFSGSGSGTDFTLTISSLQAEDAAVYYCQQYSMLPLSFGGGTKVEIK,8.9 nM,6 of 6
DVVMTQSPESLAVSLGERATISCKSSQSVLFESRNCNSVAWYQQKAGQPPKLLIYDASTRESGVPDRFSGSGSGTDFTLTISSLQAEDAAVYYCQQYHRPPLSFGGGTKVEIK,3.5 nM,6 of 6
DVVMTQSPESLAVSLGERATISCMISQLYNMGTFAINSVAWYQQKAGQPPKLLIYQASQRNEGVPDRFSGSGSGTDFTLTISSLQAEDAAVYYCQQYDRLPLMFGGGTKVEIK,2.9 nM,6 of 6
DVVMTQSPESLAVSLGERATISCQYSMNLTIYDQEQGNVAWYQQKAGQPPKLLIYHGEMRTEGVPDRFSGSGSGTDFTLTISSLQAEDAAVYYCQQYHKLPLSFGGGTKVEIK,21 nM,2 of 6
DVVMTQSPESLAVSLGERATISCKLRQSTEYESRNQNSVAWYQQKAGQPPKLLIYWASTRESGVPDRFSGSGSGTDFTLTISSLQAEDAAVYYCQQYHRLPLSFGGGTKVEIK,110 nM,6 of 6
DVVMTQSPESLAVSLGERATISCKLYQATALTSSVRNNVAWYQQKAGQPPKLLIYDLNERERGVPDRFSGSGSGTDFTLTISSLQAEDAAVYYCQQYFRLPLSFGGGTKVEIK,3.4 nM,6 of 6
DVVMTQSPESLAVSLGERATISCMVNTNLVHQANRDNNIAWYQQKAGQPPKLLIYEAQMVAAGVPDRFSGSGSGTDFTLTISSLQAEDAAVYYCQDYDRLPLIFGGGTKVEIK,230 nM,2 of 6
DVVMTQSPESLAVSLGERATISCKLPQSVLYESRNKNSVAWYQQKAGQPPKLLIYEASTREDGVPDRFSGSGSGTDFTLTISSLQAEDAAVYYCQSYHRLPLSFGGGTKVEIK,840 pM,6 of 6
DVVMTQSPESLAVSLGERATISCTLTQSTGMESHNKNSVAWYQQKAGQPPKLLIYDLSTRGSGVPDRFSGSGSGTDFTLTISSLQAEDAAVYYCQQYHRLPLSFGGGTKVEIK,1.1 nM,6 of 6
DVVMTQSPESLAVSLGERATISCKLSQSNKYESRMKNSVAWYQQKAGQPPKLLIYNASQRELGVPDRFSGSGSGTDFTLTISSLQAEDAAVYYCQQYHRLPLSFGGGTKVEIK,1.7 nM,6 of 6
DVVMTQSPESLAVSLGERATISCKSSQSVLYESRNANSVAWYQQKAGQPPKLLIYDASTRESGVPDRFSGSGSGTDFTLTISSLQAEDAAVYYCQQYHRLPLWFGGGTKVEIK,2.7 nM,6 of 6
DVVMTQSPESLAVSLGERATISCKLPQSWLYESQNSNSVAWYQQKAGQPPKLLIYHASQREDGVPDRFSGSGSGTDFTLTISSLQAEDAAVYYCQQYHRLPLSFGGGTKVEIK,510 pM,6 of 6
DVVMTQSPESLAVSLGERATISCHIDDFEPSEGEKWNAIAWYQQKAGQPPKLLIYGDATRLQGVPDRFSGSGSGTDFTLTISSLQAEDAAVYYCQAYARLPLSFGGGTKVEIK,200 nM,6 of 6
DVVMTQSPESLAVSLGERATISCHMKDELGLGPKTQSSVAWYQQKAGQPPKLLIYHGSMREPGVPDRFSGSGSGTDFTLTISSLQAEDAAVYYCQDYYRLPLGFGGGTKVEIK,1.1 nM,6 of 6
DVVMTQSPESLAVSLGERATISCKFSQSVGYESRNKNSVAWYQQKAGQPPKLLIYNAQTRMSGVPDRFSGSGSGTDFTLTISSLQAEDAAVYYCQQYHRLPLSFGGGTKVEIK,2.1 nM,6 of 6
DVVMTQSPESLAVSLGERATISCILSQMMLTAGNKHSSVAWYQQKAGQPPKLLIYQANNRQDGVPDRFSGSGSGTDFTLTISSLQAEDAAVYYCQQYHRLPLSFGGGTKVEIK,64 nM,6 of 6
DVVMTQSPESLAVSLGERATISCKSSQSVRFESNNKNSVAWYQQKAGQPPKLLIYWASTRSSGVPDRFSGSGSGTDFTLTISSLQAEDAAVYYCFQYHRLPLSFGGGTKVEIK,nd,0 of 6

Top 3 of the variants detected in all replicates, tightest first:

VL	Kd	replicates with signal
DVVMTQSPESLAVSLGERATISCKSQTGVLYESRNKNSVAWYQQKAGQPPKLLIYGASTRESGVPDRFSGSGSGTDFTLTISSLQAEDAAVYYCQQYHRLPLSFGGGTKVEIK	470 pM	6 of 6
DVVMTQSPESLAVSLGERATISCKLPQSWLYESQNSNSVAWYQQKAGQPPKLLIYHASQREDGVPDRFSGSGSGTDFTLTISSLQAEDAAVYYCQQYHRLPLSFGGGTKVEIK	510 pM	6 of 6
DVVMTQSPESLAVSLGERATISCKLPQSVLYESRNKNSVAWYQQKAGQPPKLLIYEASTREDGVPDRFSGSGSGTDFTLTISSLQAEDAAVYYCQSYHRLPLSFGGGTKVEIK	840 pM	6 of 6

The authors' rule: three or more of the six replicates give a measured affinity, fewer mean a poor binder.
Nonspecific signal, from three strains lacking the peptide, appeared in 4% of pairings of all light chain designs, centred on 430 nM (5% of these signals below 38 nM); values are not corrected for it.

The measurements come from Li et al. 2023 (doi:10.1038/s41467-023-39022-2) through the FLAb antibody collection.